Like-named read-outs stand apart in the source and are kept apart here.

Results on 8 substances are retold here after patent US9289488B2, “Vaccine engineering” (AC Immune SA, priority 2010, dated 2016).

The nature of data set [1]: CD spectroscopy of peptide secondary structure. The following applies: PBS; palmitoylated peptides in liposomes, acetylated peptides alone. Type of data set: physicochemical. Here is the method: • CD spectra were acquired on a Jasco-815 spectropolarimeter (Japan) with a 0.1 cm path length quartz cuvette at 23° C. Measurements were made with a 1.0 nm bandwidth and 0.5 nm resolution. A scan speed of 50 nm/min was employed with response time of 1 s. Solvent control spectra (4 scans) were averaged and subtracted from the average of 8 scans of each sample spectra. All spectra ([θ]obs, degrees) were smoothed after being converted to mean residue molar ellipticity ([θ], degrees cm^2 dmol^−1) with the equation [θ]=[θ]obs×(MRW/10lc), where MRW is the mean residue molecular weight (MW/number of residues), l is the optical path length (cm) and c is the concentration (g/cm^3). For analysis liposomal suspensions were diluted 6-fold in PBS to give final peptide concentrations between 10 to 40 μM. Spectra of the corresponding empty liposomes lacking peptide were subtracted. A2 ThT Fluorescence. • Fluorescence emission spectra were measured at 25° C. on a Tecan M200 spectrofluorimeter with an excitation of 440 nm. Liposomes were diluted 8-fold in PBS to give a final peptide concentration of 15 μM and then ThT added at different concentrations. Data were fitted using non-linear regression analysis (SigmaPlot v10.0) assuming single-site binding saturation in order to calculate apparent Kd and maximal binding Bmax. A3 Disaggregation Assay Using ThT Fluorescence. • ZnCl2, FeCl3 or CuCl2 (2 μL, 1 mM in H2O) were incubated with liposomes diluted 4-fold in PBS (48 μL) for 2 h at 22° C. PBS (48 μL) with or without DPTA (0.4 mM) was added accordingly after 5 min. ThT (2 μL, 2.4 mM in H2O) was then added and fluorescence measured after a further 5 min. For disaggregation with small molecules, Rosmarinic acid, Tannic acid or Methylene Blue (2 μL, 2.7 mM in PBS) were added to 86 μL of liposomes diluted 8-fold with PBS. After 2 h incubation at RT, ThT (2 μL, 2.4 mM in H2O) was added and after 10 min. fluorescence was measured at 490 nm (Ex. 440 nm). A4 MAS-NMR Spectroscopy. • Experiments were conducted using a 3.2 mm triple-resonance (^1H, ^13C, ^15N) MAS probe (Bruker Biospin, Germany) at a static magnetic field of 16.4 T corresponding to 700 MHz proton resonance frequency. For analysis, the amino acids A(2), S(9) and G(10) of Palm1-15 were uniformly labeled with ^13C and ^15N. […] Experiments were recorded using 10 kHz MAS and at effective sample temperature of about 4° C. After a cross polarization (CP) step employing a contact time of 600 μs, the SPC5 pulse sequence was used for generation of DQ coherence, with a ^13C radio frequency (r.f.) field strength of 50 kHz and DQ excitation and reconversion time totaling 2.28 ms. Acquisition involved in each case 110K repetitions. An ^1H field strength of 83.3 kHz was used during excitation and SPINAL64 proton decoupling. A5 SPR Analysis of Peptide-Liposome Interactions. • Experiments were performed at 25° C. using 0.2 μm filtered and degassed PBS as running buffer. An L1 sensor chip (GE Healthcare, Sweden) was docked into a BIAcore 1000 instrument and the chip surface conditioned by injection of 50 μL of Zwittergent at 30 μL/min. Liposomes lacking peptide (‘empty’ liposomes) were then immobilized onto the sensor chip following 2 successive injections of 50 μL at 2 μL/min. Finally 50 μL of 50 mM NaOH was injected over the surface at 30 μL/min in order to render the surface more unilamellar. After this wash step typically around 8000 RUs of liposomes remained immobilized. […]

The nature of data set [2]: ThT fluorescence binding to liposomal peptide constructs. The following applies: for Kd: ThT binding, read-out: App. Kd; for Bmax (8-fold dilution) / Bmax (50-fold dilution): different lipidation patterns; for ThT fluorescence emission (in words): emission at 485 nm, excitation 440 nm, PBS. Here is the method:
• CD spectra were acquired on a Jasco-815 spectropolarimeter (Japan) with a 0.1 cm path length quartz cuvette at 23° C. Measurements were made with a 1.0 nm bandwidth and 0.5 nm resolution. A scan speed of 50 nm/min was employed with response time of 1 s. Solvent control spectra (4 scans) were averaged and subtracted from the average of 8 scans of each sample spectra. All spectra ([θ]obs, degrees) were smoothed after being converted to mean residue molar ellipticity ([θ], degrees cm^2 dmol^−1) with the equation [θ]=[θ]obs×(MRW/10lc), where MRW is the mean residue molecular weight (MW/number of residues), l is the optical path length (cm) and c is the concentration (g/cm^3). […] Spectra of the corresponding empty liposomes lacking peptide were subtracted. A2 ThT Fluorescence. • Fluorescence emission spectra were measured at 25° C. on a Tecan M200 spectrofluorimeter with an excitation of 440 nm. […] Data were fitted using non-linear regression analysis (SigmaPlot v10.0) assuming single-site binding saturation in order to calculate apparent Kd and maximal binding Bmax. A3 Disaggregation Assay Using ThT Fluorescence. • ZnCl2, FeCl3 or CuCl2 (2 μL, 1 mM in H2O) were incubated with liposomes diluted 4-fold in PBS (48 μL) for 2 h at 22° C. PBS (48 μL) with or without DPTA (0.4 mM) was added accordingly after 5 min. ThT (2 μL, 2.4 mM in H2O) was then added and fluorescence measured after a further 5 min. For disaggregation with small molecules, Rosmarinic acid, Tannic acid or Methylene Blue (2 μL, 2.7 mM in PBS) were added to 86 μL of liposomes diluted 8-fold with PBS. After 2 h incubation at RT, ThT (2 μL, 2.4 mM in H2O) was added and after 10 min. fluorescence was measured at 490 nm (Ex. 440 nm). A4 MAS-NMR Spectroscopy. • Experiments were conducted using a 3.2 mm triple-resonance (^1H, ^13C, ^15N) MAS probe (Bruker Biospin, Germany) at a static magnetic field of 16.4 T corresponding to 700 MHz proton resonance frequency. […] Experiments were recorded using 10 kHz MAS and at effective sample temperature of about 4° C. After a cross polarization (CP) step employing a contact time of 600 μs, the SPC5 pulse sequence was used for generation of DQ coherence, with a ^13C radio frequency (r.f.) field strength of 50 kHz and DQ excitation and reconversion time totaling 2.28 ms. Acquisition involved in each case 110K repetitions. An ^1H field strength of 83.3 kHz was used during excitation and SPINAL64 proton decoupling. A5 SPR Analysis of Peptide-Liposome Interactions. • Experiments were performed at 25° C. using 0.2 μm filtered and degassed PBS as running buffer. An L1 sensor chip (GE Healthcare, Sweden) was docked into a BIAcore 1000 instrument and the chip surface conditioned by injection of 50 μL of Zwittergent at 30 μL/min. Liposomes lacking peptide (‘empty’ liposomes) were then immobilized onto the sensor chip following 2 successive injections of 50 μL at 2 μL/min. Finally 50 μL of 50 mM NaOH was injected over the surface at 30 μL/min in order to render the surface more unilamellar. […] 50 μL of acetylated peptides solubilized in PBS were then injected over the surface over a range of concentrations at a flow rate of 30 μL/min, followed by dissociation with PBS for 300 s. After analysis of the interaction of different peptides, a fresh lipid bilayer was immobilized. A6 Dynamic Light Scattering. • Liposome samples were diluted 100-fold with PBS. Analysis was performed using a Zetasizer Nano (Malvern, USA) at 25° C. Data was analyzed with DTS 5.0 (Malvern) software by signal intensity in order to calculate the average liposome diameter and polydispersity index (PDI).

The mark [3] stands for this setting: different lipidation patterns (Table 5).

For the substance “H-K(Palm)-DAEFRHDSGYEVHHQ-K(Palm)-OH [Palm1-15(1N1C)]”, in data set [1], the “Secondary structure by CD spectroscopy” value is recorded as “extended β-strand conformation”. In addition, in data set [2] (setting [3]), the Kd came to 35.1 µM. Moreover, in data set [2], the “Bmax (8-fold dilution)” value is on record as 2488 and the “ThT fluorescence emission (in words)” value is recorded as “only very weakly fluorescent”.
Regarding “H-K(Octanoyl)-K(Octanoyl)-DAEFRHDSGYEVHHQ-K(Octanoyl)-K(Octanoyl)-OH [Octyl 1-15]”, the Kd in data set [2] (setting [3]) was 5.8 µM. The “Bmax (8-fold dilution)” value in data set [2] amounted to 9184.
In the case of “H-DAEFRHDSGYEVHHQ-K(Palm)-K(Palm)-OH [Palm1-15(2C)]”, in data set [1], the “Secondary structure by CD spectroscopy” value was “classical β-sheet CD spectra”. Besides, in data set [2] (setting [3]), the Kd turned out to be 4.3 µM. The “Bmax (8-fold dilution)” value in data set [2] was found to be 31898.
Consider “H-DAEFRHDSGYEVHHQ-K(Palm)-K(Palm)-K(Palm)-K(Palm)-OH [Palm1-15(4C)]”, for which the “Secondary structure by CD spectroscopy” value in data set [1] is reported as “classical β-sheet CD spectra”. In data set [2] (setting [3]), the Kd turned out to be 1.5 µM. Besides, in data set [2], the “Bmax (50-fold dilution)” value is 31756 and the “ThT fluorescence emission (in words)” value is on record as “much higher ThT fluorescence emission”.
Take “H-K(Dodecanoyl)-K(Dodecanoyl)-DAEFRHDSGYEVHHQ-K(Dodecanoyl)-K(Dodecanoyl)-OH [Dodecyl 1-15]”: the Kd in data set [2] (setting [3]) is 1.2 µM. In data set [2], the “Bmax (8-fold dilution)” value turned out to be 26415.
With “H-K(X)-K(X)-DAEFRHDSGYEVHHQ-K(X)-K(X)-OH [Palm1-15]”, the “Secondary structure by CD spectroscopy” value in data set [1] was “β-sheet secondary structure”. Further, the Kd in data set [2] (liposomes DMPC/DMPG/cholesterol/MPLA 9:1:7:0.06, diluted 8-fold, single site fit) was determined as 2.4 µM. In data set [2] (ThT fluorescence at saturation, liposomes DMPC/DMPG/cholesterol/MPLA 9:1:7:0.06, diluted 8-fold), this substance showed a Bmax of 36318. Also, in data set [2], the “Bmax (8-fold dilution)” value is 36318 and the “Bmax (50-fold dilution)” value was 8140. In data set [2] (relative to ACI-24 (Palm1-15)), the “Bmax (% rel. ACI-24)” value is 100%.
Turning to “H-K(Butanoyl)-K(Butanoyl)-DAEFRHDSGYEVHHQ-K(Butanoyl)-K(Butanoyl)-OH [Butyl 1-15]”, in data set [2] (setting [3]), the Kd is 7.3 µM. In addition, in data set [2], the “Bmax (8-fold dilution)” value is 476.
“H-DAEFRHDSGYEVHHQ-K(Palm)-OH [Palm1-15(1C)]”: the “Secondary structure by CD spectroscopy” value in data set [1] was “mixture of random coil and β-sheet conformations”. The Kd in data set [2] (setting [3]) came to 5.6 µM. In data set [2], the “Bmax (8-fold dilution)” value stood at 7093 and the “ThT fluorescence emission (in words)” value is “only a very low signal”.
